# Results from PMC10730852 (Communications Biology, 2023).
# What was measured:
# Cph001 = experiment: Coupled enzyme assay and Michaelis-Menten kinetics of Cph001; type: biochemical, Streptosporangium roseum; conditions: CMN IIA varied, mean ± SEM, n = 3
# Method: The phosphorylation reaction was measured by a coupled enzyme assay as following. […] The reactions were mixed well in a final volume of 200 μL in 96-well plates. The Cph001 activity was assayed by determining the oxidation of NADH at 340 nm. The reaction buffer and enzyme concentration of the Cph reaction was followed by previous study. The 340 nm absorbance changes were detected at 30 °C for every 1 min at a time in 15 min on an EPOCH Microplate Reader (BioTek). All reactions were carried out in triplicate.
# The initial velocity data were plotted against substrate concentrations and fit the Michaelis-Menten equation. The Km and Vmax values were calculated based on the Michaelis-Menten equation. GraphPad Prism was used for statistical data analysis. All reactions were carried out in triplicate.
# Cph = tested on: Cph; design: method as in Previous kinetic studies; conditions: ATP as a phosphate donor; ref Previous kinetic studies; cited from earlier work
smiles,measurement,setting,value
N=C1NCCC([C@@H]2NC(=O)/C(=C/NC(N)=O)NC(=O)[C@H](CNC(=O)C[C@@H](N)CCCN)NC(=O)[C@H](CO)NC(=O)[C@@H](N)CNC2=O)N1 (stereo in doubt) [CMN IIA],turnover number (kcat) of Cph001,Cph001; ATP as phosphate donor (2 mM),0.0105 ± 0.00083 s⁻¹
same,kcat of Cph001,Cph001; saturating GTP as phosphate donor (2 mM),0.006 ± 0.0005 s⁻¹
same,kcat value of Cph for CMN IIA,Cph,0.29 s⁻¹
